Test results as given in patent US9758501B2, “Fluorophore 3-hydroxyflavone” (TUBITAK (TURKIYE BILIMSEL VE TEKNOLOJIK ARASTIRMA KURUMU), priority 2013, dated 2017).

Assay: Solubility in water

For “N-(3-hydroxy-4′-flavonyl)-N,N,N-trimethylammonium sulphate [3-HFNMe3]”, the solubility in water was “highly water soluble”.
